Sequences of proteins named here, by UniProt entry; tags and fusion partners are left off. Residues count along the entry.
UniProt P51449, 262-507 limits assumed: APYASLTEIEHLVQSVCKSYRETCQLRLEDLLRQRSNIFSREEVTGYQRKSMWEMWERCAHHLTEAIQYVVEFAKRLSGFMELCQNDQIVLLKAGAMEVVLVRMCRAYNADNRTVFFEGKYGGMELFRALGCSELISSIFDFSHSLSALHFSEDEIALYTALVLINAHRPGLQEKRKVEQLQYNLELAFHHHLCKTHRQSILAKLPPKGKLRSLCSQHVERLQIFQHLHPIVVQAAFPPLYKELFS

According to patent publication US9637455B2, “Heterocyclic sulfone RORγ modulators” (BRISTOL-MYERS SQUIBB COMPANY, priority 2014, dated 2017):

Target: ligand binding domain of human RORγ (A262-S507) (Homo sapiens (Human), UniProt P51449)
Assay: biochemical

With `O=C(N1CCC(O)(C(F)(F)F)CC1)N1CCCC(c2ccc(C(OCc3c(F)cccc3F)(C(F)(F)F)C(F)(F)F)cc2)(S(=O)(=O)c2ccc(F)cc2)C1` (stereo not shown) [Example 2, (3-(4-(2-((2,6-difluorobenzyl)oxy)-1,1,1,3,3,3-hexafluoropropan-2-yl)phenyl)-3-((4-fluorophenyl)sulfonyl)piperidin-1-yl)(4-hydroxy-4-(trifluoromethyl)piperidin-1-yl)methanone] the IC50 was 2630 nM.
